This note sets out measurements from publication doi:10.1101/2025.02.24.640009.

The assay deals with Cy5-PLN20 (cytoplasmic domain of phospholamban, residues 1-20) (UniProt P26678). Nature of the assay: single-molecule diffusivity and electrokinetic mobility in an ABEL trap; 10 pM Cy5-PLN20 or Cy5-SP20 trapped, 0.26 uM PKAc, 0.4 uM lambda phosphatase, 20 mM HEPES pH 7.2, 2 mM Trolox, 100 mM NaCl, 5 mM MgCl2, 0.4 mM MnCl2, 0.4 mM ATP; 23 °C; complex seen as low-D state.

Consider “cAMP-dependent Protein Kinase A catalytic subunit (from UniProt P05132 1-351) (enzyme)”, for which the time bound is 20 ms.
